Test results: US10947317B2, “NaPi2b-targeted antibody-drug conjugates and methods of use thereof” (Mersana Therapeutics, Inc., priority 2016, dated 2021)

Assays:
Format in all cases: cell-based
Details in all cases: 72 hours or 6 days
[1] = system: IGROV1 (ovarian adenocarcinoma cell line); assay: Cytotoxicity assay (CellTiter-Glo), IGROV1
Method: (§1) OVCAR3 (ovarian adenocarcinoma cell line, not amplified, ATCC, Cat.#HTB-161) was cultured in RPMI medium with 20% FBS. TOV-21G (human ovarian adenocarcinoma cell line, not amplified, ATCC, Cat.#CRL-11730) was cultured in 1:1 mixture of MCDB 105 medium containing a final concentration of 1.5 g/L sodium bicarbonate and Medium 199 containing a final concentration of 2.2 g/L sodium bicarbonate with 15% FBS. IGROV1 (ovarian adenocarcinoma cell line, not amplified) was cultured in RPMI medium with 10% FBS. HCC-4006 (human lung carcinoma cell line, not amplified, ATCC, Cat.#ATCC® CRL-2871™) was cultured in RPMI medium with 10% FBS.
(§2) For the cytotoxicity assay, cells were seeded at a density of 5000 cells per well in 96 well plates and allowed to attach during overnight incubation at 37° C. in the presence of 5% CO2. The media was then replaced with fresh media containing a range of the conjugates Examples 1A, 2C, 3A or AF-HPA (100 nM to 0.1 pM) or Examples 1C, 2C, 3B or AF-HPA (100 nM to 0.1 pM) and the cells were incubated for 72 hours or 6 days at […] in the presence of 5% CO2. Cell survival was measured using CellTiter-Glo® Luminescent Cell Viability Assay (Promega, Madison, Wis.) as described in the kit instructions. Cell viability was normalized to untreated control and expressed as a percentage. The values were plotted and IC50 values calculated with GraphPad Prism software (San Diego, Calif.) using 4 parameter, variable slope, dose response curve fitting algorithm.

[2] = system: HCC-4006 (human lung carcinoma cell line); assay: Cytotoxicity assay (CellTiter-Glo), HCC-4006
Method: as §1, §2

[3] = system: TOV-21G (human ovarian adenocarcinoma cell line); assay: Cytotoxicity assay (CellTiter-Glo), TOV-21G
Method: as §1, §2

[4] = system: OVCAR3 (ovarian adenocarcinoma cell line); assay: Cytotoxicity assay (CellTiter-Glo), OVCAR-3
Method: as §1, §2

## (10H1.11.4B)-(EG2-MI-(10 kDa PHF-BA-(AF-HPA-Ala))) [Example 2C]
[1]; Table VA
  IC50: 10.6 nM
[1]; Table VB
  IC50: 2.73 nM
[2]; Table VA
  IC50: 2.96 nM
[2]; Table VB
  IC50: 3.17 nM
[3]; Table VA
  IC50: 2.03 nM
[3]; Table VB
  IC50: 41.5 nM
[4]; Table VA
  IC50: 0.014 nM
[4]; Table VB
  IC50: 0.11 nM

## XMT-1535-(EG2-MI-(10 kDa PHF-BA-(AF-HPA-Ala))) [Example 1A]
[1]; Table VA
  IC50: ~5 nM
[2]; Table VA
  IC50: 0.13 nM
[3]; Table VA
  IC50: 0.04 nM
[4]; Table VA
  IC50: 0.002 nM
